Experimental findings from EPA's ToxRefDB 2 are described below.

In general, LOAEL refers to the lowest dose or exposure tested at which an adverse effect was seen. A word on the NOAEL: it is the highest tested level that showed no adverse finding.

The test system of data set [1] is rabbit. To be noted: Prenatal developmental toxicity study, new zealand white, Oral, Gavage/Intubation, dose end: 13 day.
In data set [2] the test system is rat. Particulars: Prenatal developmental toxicity study, sprague dawley, Oral, Gavage/Intubation, dose end: 12 day.
Data set [3] has as its system rat. Particulars: Prenatal developmental toxicity study, sprague dawley, Oral, Gavage/Intubation, dose end: 21 PND.
In data set [4] the test system is rat. To be noted: Prenatal developmental toxicity study, sprague dawley, Injection, Subcutaneous, group: maternal.
The subject of data set [5] is rat. To be noted: Prenatal developmental toxicity study; long evans; Oral; Feed; dose end: 115 day; group: maternal; reproductive / reproductive performance / pregnancy / pregnancy + systemic / organ weight / ovary / absolute + reproductive / offspring ….
Data set [6] has as its system mouse. To be noted: Prenatal developmental toxicity study; Oral; Feed; dose end: 0 PND; group: maternal; reproductive / reproductive performance / gestational length / gestational length + systemic / in life observation / mortality / mortality.
The subject of data set [7] is rat. Particulars: Prenatal developmental toxicity study; long evans; Oral; Feed; dose end: 0 PND; group: maternal; reproductive / reproductive performance / estrous cycle / abnormal + reproductive / reproductive performance / gestational length / ….
The subject of data set [8] is mouse. Particulars: Prenatal developmental toxicity study; Oral; Feed; dose end: 109 day; group: maternal; reproductive / reproductive performance / pregnancy / pregnancy + systemic / organ weight / ovary / absolute + systemic / in life ….
Data set [9] deals with rat. To be noted: Prenatal developmental toxicity study, long evans, Oral, Water, dose end: 20 PND.
Data set [10] concerns rat. Particulars: Prenatal developmental toxicity study, long evans, Oral, Water, dose end: 20 PND. The source holds these as a separate data set.
The test system of data set [11] is rabbit. To be noted: Prenatal developmental toxicity study; new zealand white; Oral; Feed; dose end: 29 day; group: maternal; systemic / in life observation / body weight / body weight gain + systemic / in life observation / food consumption / food consumption.
The mark [12] stands for this setting: group: developmental, systemic / in life observation / body weight / fetal weight.
Where [13] appears, read: group: maternal, reproductive / reproductive performance / aborted / aborted + systemic / in life observation / body weight / body weight + systemic / in ….
[14] abbreviates: group: maternal, systemic / in life observation / mortality / mortality.
[15] abbreviates: group: maternal, reproductive / offspring survival early / dead fetuses / dead fetuses + systemic / in life observation / body weight / body weight + ….
The mark [16] stands for this setting: group: maternal, systemic / in life observation / body weight / body weight + systemic / in life observation / body weight / body weight gain.
Where [17] appears, read: group: developmental, developmental / developmental landmark / eye opening / eye opening + systemic / in life observation / body weight / offspring (pup) weight….
[18] abbreviates: group: maternal, systemic / in life observation / body weight / body weight gain.
[19] abbreviates: group: maternal, systemic / in life observation / body weight / body weight gain + systemic / in life observation / mortality / mortality + reproductive / ….
[20] abbreviates: reproductive / reproductive performance / estrous cycle / abnormal + systemic / in life observation / body weight / body weight gain + ….
Where [21] appears, read: group: developmental, developmental / offspring survival late / [other] / [other] + systemic / clinical chemistry / lipids, total / lipids, total + systemic / ….
[22] abbreviates: group: maternal, systemic / in life observation / body weight / body weight + systemic / in life observation / water consumption / water consumption.
Setting [23] is: group: developmental, systemic / hematology / erythrocyte (rbc) count differential / erythrocyte (rbc) + systemic / hematology / hemoglobin (hgb) / hemoglobin (….
The mark [24] stands for this setting: group: developmental, systemic / hematology / mean corpuscular (cell) volume (mcv) / mean corpuscular (cell) volume (mcv).
[25] abbreviates: group: maternal, systemic / in life observation / water consumption / water consumption.

In the data set on rabbit [1] (setting [12]), `CCC(CC)Nc1cc(C)nc(Oc2c(C)cc(C)cc2C)c1C` displayed an LEL of 50 mg/kg/day, an LOAEL above 100 mg/kg/day and a no-observed-adverse-effect level (NOAEL) of at least 100 mg/kg/day. Further, in the data set with rabbit [1] (setting [13]), the lowest-observed-adverse-effect level (LOAEL) is above 100 mg/kg/day and the no observed adverse effect level (NOAEL) was at least 100 mg/kg/day. In the data set on rabbit [1] (setting [14]), the LEL was 10 mg/kg/day and the NEL was below 10 mg/kg/day.

For the compound `CCOc1cccc(C2(N3CCN(c4ccccc4)CC3)CCC(C)CC2)c1.CS(=O)(=O)O` (stereo not drawn), in the data set on rat [2] (setting [12]), the LEL was found to be 25 mg/kg/day, the LOAEL is above 255 mg/kg/day, the NEL was below 25 mg/kg/day and the no-observed-adverse-effect level (NOAEL) was at least 255 mg/kg/day. In the data set on rat [2] (setting [15]), the lowest observed adverse effect level (LOAEL) is above 255 mg/kg/day and the NOAEL was at least 255 mg/kg/day. In addition, in the data set with rat [2] (setting [16]), the LEL was 25 mg/kg/day and the NEL is below 25 mg/kg/day.

Take `ClC1=C(Cl)C2(Cl)C3C(Cl)C=CC3C1(Cl)C2(Cl)Cl` (stereo not drawn) [Heptachlor]: the LEL was determined as 5 mg/kg/day with rat [3] (setting [17]), 0.5 mg/kg/day in the data set on rat [3] (setting [18]) and 20 mg/kg/day in the data set with rat [4] (setting [20]). Also, the LOAEL is above 5 mg/kg/day in the data set with rat [3] (setting [17]), above 5 mg/kg/day in the data set on rat [3] (setting [19]) and above 20 mg/kg/day in the data set with rat [4] (setting [20]). The NEL is 0.5 mg/kg/day with rat [3] (setting [17]), below 0.5 mg/kg/day with rat [3] (setting [18]) and 5 mg/kg/day in the data set on rat [4] (reproductive / reproductive performance / estrous cycle / abnormal + systemic / in life observation / body weight / body weight gain). Further, the NOAEL with rat [3] (setting [17]) is at least 5 mg/kg/day; in the data set on rat [3] (setting [19]) it was at least 5 mg/kg/day; in the data set with rat [4] (setting [20]), at least 20 mg/kg/day.

With `CC#C[C@]1(O)CC[C@H]2[C@@H]3CCC4=CC(=O)CCC4=C3[C@@H](c3ccc(N(C)C)cc3)C[C@@]21C` [Mifepristone], in the data set on rat [5], the LEL came to 150 mg/kg/day, the LOAEL is above 150 mg/kg/day, the NEL is below 150 mg/kg/day and the no observed adverse effect level (NOAEL) is at least 150 mg/kg/day. In addition, in the data set on mouse [6], the LEL is 150 mg/kg/day, the LOAEL was above 150 mg/kg/day, the NEL is below 150 mg/kg/day and the NOAEL is at least 150 mg/kg/day. Besides, in the data set on rat [7], the LEL was 150 mg/kg/day, the LOAEL was above 150 mg/kg/day, the NEL is below 150 mg/kg/day and the NOAEL was at least 150 mg/kg/day. Moreover, in the data set on mouse [8], the LEL was 150 mg/kg/day, the lowest-observed-adverse-effect level (LOAEL) is above 150 mg/kg/day, the NEL is below 150 mg/kg/day and the NOAEL is at least 150 mg/kg/day.

Consider `O=N[O-].[Na+]` [Sodium nitrite], for which the LEL in the data set with rat [9] (setting [21]) turned out to be 320 mg/kg/day; in the data set on rat [9] (setting [22]) it was 320 mg/kg/day; in the data set with rat [10] (setting [24]), 25.1 mg/kg/day; in the data set on rat [10] (setting [25]), 100 mg/kg/day. Further, the lowest-observed-adverse-effect level (LOAEL) in the data set with rat [9] (setting [21]) was above 407 mg/kg/day; with rat [9] (setting [22]), above 407 mg/kg/day; in the data set on rat [10] (setting [23]), above 100 mg/kg/day; in the data set with rat [10] (setting [25]) it was above 100 mg/kg/day. Also, the NEL in the data set with rat [9] (setting [21]) is below 320 mg/kg/day; with rat [9] (setting [22]), below 320 mg/kg/day; with rat [10] (setting [24]), below 25.1 mg/kg/day; in the data set with rat [10] (setting [25]), 50 mg/kg/day. Moreover, the no observed adverse effect level (NOAEL) with rat [9] (setting [21]) was at least 407 mg/kg/day; in the data set on rat [9] (setting [22]), at least 407 mg/kg/day; with rat [10] (setting [23]), at least 100 mg/kg/day; in the data set on rat [10] (setting [25]), at least 100 mg/kg/day.

In the case of `OC[C@H]1O[C@@H]2O[C@H]3[C@H](O)[C@@H](O)[C@@H](O[C@H]4[C@H](O)[C@@H](O)[C@@H](O[C@H]5[C@H](O)[C@@H](O)[C@@H](O[C@H]6[C@H](O)[C@@H](O)[C@@H](O[C@H]7[C@H](O)[C@@H](O)[C@@H](O[C@H]1[C@H](O)[C@H]2O)O[C@@H]7CO)O[C@@H]6CO)O[C@@H]5CO)O[C@@H]4CO)O[C@@H]3CO` [alpha-Cyclodextrin], in the data set on rabbit [11], the LEL turned out to be 6.7 mg/kg/day, the LOAEL is above 6.7 mg/kg/day, the NEL is 3.8 mg/kg/day and the NOAEL is at least 6.7 mg/kg/day.
